In patent publication US7179793B2, “Anti-hypertensive dietary supplement” (Ocean Nutrition Canada Limited, priority 2005, dated 2007):
pIC50: −log10 of the molar value. Values joined by “and” are separate entries in the source; they are usually repeats but may differ in a detail not shown here. Equal values may be shown once.

Amino acid sequences for entries named in this document (tags omitted). Residues count along the entry.
UniProt P12821, 30-1306, species assumed: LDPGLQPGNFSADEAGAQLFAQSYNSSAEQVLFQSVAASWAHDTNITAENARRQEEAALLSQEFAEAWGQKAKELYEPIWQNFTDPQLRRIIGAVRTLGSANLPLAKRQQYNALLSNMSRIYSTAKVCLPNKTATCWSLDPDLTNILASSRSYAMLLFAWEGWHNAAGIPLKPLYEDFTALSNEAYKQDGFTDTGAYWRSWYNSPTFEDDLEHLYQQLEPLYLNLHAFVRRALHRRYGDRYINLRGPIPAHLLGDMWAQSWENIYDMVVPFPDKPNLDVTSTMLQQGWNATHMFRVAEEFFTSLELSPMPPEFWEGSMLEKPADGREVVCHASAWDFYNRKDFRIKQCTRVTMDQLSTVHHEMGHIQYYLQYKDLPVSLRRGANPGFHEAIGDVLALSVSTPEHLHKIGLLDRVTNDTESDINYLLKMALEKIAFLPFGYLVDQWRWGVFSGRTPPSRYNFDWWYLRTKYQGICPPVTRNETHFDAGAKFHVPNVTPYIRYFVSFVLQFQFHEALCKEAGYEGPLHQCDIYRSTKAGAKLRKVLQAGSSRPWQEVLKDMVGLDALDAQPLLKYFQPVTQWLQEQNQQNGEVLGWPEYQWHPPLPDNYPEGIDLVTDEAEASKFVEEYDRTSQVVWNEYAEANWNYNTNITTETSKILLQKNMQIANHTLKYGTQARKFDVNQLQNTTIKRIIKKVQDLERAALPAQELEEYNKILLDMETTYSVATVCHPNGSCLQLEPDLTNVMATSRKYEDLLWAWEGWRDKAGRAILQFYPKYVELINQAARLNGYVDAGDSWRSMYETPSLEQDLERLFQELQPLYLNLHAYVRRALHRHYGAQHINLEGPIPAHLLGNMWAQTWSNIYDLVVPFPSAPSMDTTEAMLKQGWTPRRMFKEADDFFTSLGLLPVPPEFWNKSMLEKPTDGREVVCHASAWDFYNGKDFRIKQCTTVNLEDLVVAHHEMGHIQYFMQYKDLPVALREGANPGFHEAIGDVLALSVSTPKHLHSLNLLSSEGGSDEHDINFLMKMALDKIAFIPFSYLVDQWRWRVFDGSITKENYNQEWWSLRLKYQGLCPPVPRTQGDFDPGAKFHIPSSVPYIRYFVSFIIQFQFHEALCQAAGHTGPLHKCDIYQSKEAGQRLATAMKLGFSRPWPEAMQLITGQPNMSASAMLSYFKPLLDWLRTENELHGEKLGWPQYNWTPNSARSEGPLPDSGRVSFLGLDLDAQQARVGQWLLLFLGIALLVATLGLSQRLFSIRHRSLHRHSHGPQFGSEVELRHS

What follows are compounds tested against angiotensin I-converting enzyme (ACE) (Homo sapiens, UniProt P12821) (assay: In vitro ACE inhibitory activity (IC50), method of Holmquist et al.). Conditions: synthesized tripeptides identified in fraction C.
Assay type: biochemical
Description: The activities after ethanol precipitation or ultrafiltration were 42.1 μg/mL and 41.1 μg/mL respectively.
Several ACE inhibitory peptides in the ultrafiltered salmon protein hydrolysate were identified. The ultrafiltered hydrolysate powder in water was applied on a gel filtration TSK-gel G300OPWXL column (7.8×300 mm, 6 μ, Tosoh). The column was eluted with 10% aqueous methanol at a flow rate of 0.8 mL/min. The elution was monitored by UV diode array detection collecting UV absorbance data from 192–450 nm. Individual fractions were lyophilized and their ACE inhibitory activities were measured.
This example compares the ACE inhibitory activity of salmon protein hydrolysates prepared using various proteases. Salmon frames were d in optimum hydrolysis conditions with various proteases by the process described in Example 1 and the ACE inhibitory activity of the hydrolysates was determined by the methods described in Example 1.

| Structure (SMILES) | pIC50 |
| --- | --- |
| CC(C)C[C@H](N)C(=O)N[C@@H](C)C(=O)N[C@@H](Cc1ccccc1)C(=O)O [Leu-Ala-Phe] | 4.41 |
| CC(C)C[C@H](N)C(=O)N[C@@H](C)C(=O)N[C@@H](Cc1ccc(O)cc1)C(=O)O [Leu-Ala-Tyr] | 4.05 and ~4.05 |
| CC(C)C[C@H](N)C(=O)N[C@H](C(=O)N[C@@H](Cc1ccccc1)C(=O)O)[C@@H](C)O [Leu-Thr-Phe] | 4.09 and ~4.09 |
| CC(C)C[C@H](NC(=O)[C@H](C)NC(=O)[C@@H](N)Cc1ccc(O)cc1)C(=O)O [Tyr-Ala-Leu] | 3.81 and ~3.81 |
| C[C@H](NC(=O)[C@@H](N)Cc1ccc(O)cc1)C(=O)N[C@@H](Cc1ccc(O)cc1)C(=O)O [Tyr-Ala-Tyr] | 4.50 |
| N=C(N)NCCC[C@H](NC(=O)[C@H](CC(N)=O)NC(=O)[C@@H](N)Cc1ccc(O)cc1)C(=O)O [Tyr-Asn-Arg] | 3.92 and ~3.92 |
| CC(C)[C@H](N)C(=O)N[C@@H](Cc1ccccc1)C(=O)N[C@@H](Cc1ccc(O)cc1)C(=O)O [Val-Phe-Tyr] | 4.59 |

Further lines, results first:

| pIC50 | Structure (SMILES) |
| --- | --- |
| 5.02 | CC[C@H](C)[C@H](N)C(=O)N[C@@H](C)C(=O)N[C@@H](Cc1c[nH]c2ccccc12)C(=O)O [Ile-Ala-Trp] |
| 3.80 and ~3.80 | CC[C@H](C)[C@H](N)C(=O)N[C@@H](C)C(=O)N[C@@H](Cc1ccc(O)cc1)C(=O)O [Ile-Ala-Tyr] |
| 4.64 | CC[C@H](C)[C@H](N)C(=O)N[C@H](C(=O)N[C@@H](Cc1ccccc1)C(=O)O)[C@@H](C)CC [Ile-Ile-Phe] |
| 4.62 | CC(C)C[C@H](NC(=O)[C@@H](N)C(C)C)C(=O)N[C@@H](Cc1c[nH]c2ccccc12)C(=O)O [Val-Leu-Trp] |
